In US20090253634A1, “Methods and Compositions for the Treatment of Gastrointestinal Disorders” (MICROBIA, INC., priority 2005, published 2009):

System: carboxypeptidase A
Test: in vitro proteolytic stability: carboxypeptidase A

With “N-CBZ-Glycine-Glycine-Leucine [Z-Gly-Gly-Leu, reference compound]” the “average calculated concentration of Z-Gly-Gly-Leu” value (T0 control and T0 samples) was 7.1 (+/0.30) μg/mL, the “calculated concentration of the Z-Gly-Gly-Leu products” value (T3 h and T24 h samples) was 2.2 (+/−0.10) μg/mL and the “precursor mass of Z-Gly-Gly-Leu” value (T3 h and T24 h samples) was “No precursor mass was detected”.
